Apparent affinities of Ab-91 variants for a coronavirus HR2 peptide

The measurements come from Engelhart et al. 2022 (doi:10.1038/s41597-022-01779-4) through the FLAb antibody collection.

Binding partner: SARS-CoV-2 spike HR2 peptide, sequence PDVDLGDISGINAS.

Ab-91 is the parent antibody, in scFv form: VL, then a (GGGGS)3 linker, then VH. The light chain is unchanged in all variants.
VL: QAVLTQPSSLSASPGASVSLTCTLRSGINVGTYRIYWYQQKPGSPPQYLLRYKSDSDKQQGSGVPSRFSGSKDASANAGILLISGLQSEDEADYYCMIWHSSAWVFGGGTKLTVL
VH: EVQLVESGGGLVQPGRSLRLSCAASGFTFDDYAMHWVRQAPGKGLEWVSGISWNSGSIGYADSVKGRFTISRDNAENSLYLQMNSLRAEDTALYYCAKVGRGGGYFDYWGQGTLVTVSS

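The starting antibody came from a phage panning campaign against this peptide. The library (AAYL51) carries one to three amino acid substitutions per variant, with no insertions or deletions. Affinity was read by AlphaSeq, a pooled yeast mating assay with surface-displayed partners. The frequency of each diploid, read from paired DNA barcodes, reflects how well the two displayed proteins bind. A regression on co-assayed BCL2-family reference pairs converts the normalised counts of each replicate to an apparent Kd. The assay was run in three technical replicates.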

Changes read parent residue, position, new residue, counted from the first residue of the VH shown.
This list gathers variants with a substitution at Y108 (VH, numbered from residue 1).
Each Kd is an estimate from the mating assay, the geometric mean of the replicates in which the pair was seen; lower is stronger.
"not detected" marks a missing value. The strain was present, yet no cells mated with the target were sequenced in any replicate, which points to weak or no binding.

changes,apparent Kd,seen in,signal with controls
G56Y+A61M+Y108W,49 µM,2 of 3,3 of 9
S63K+D107V+Y108T,not detected,0 of 3,1 of 9
V64Q+D107N+Y108D,180 µM,2 of 3,4 of 9
F29S+G59V+Y108S,18 µM,2 of 3,0 of 9
G50T+G104K+Y108M,1.5 µM,1 of 3,1 of 9
F29Y+S55A+Y108G,330 nM,3 of 3,1 of 9
Y32E+Y60N+Y108M,17 µM,2 of 3,3 of 9
T28A+A33Y+Y108F,760 nM,3 of 3,1 of 9
H35L+Y108D,69 µM,3 of 3,5 of 9
I51E+K65E+Y108I,30 µM,1 of 3,2 of 9
T28Y+D30K+Y108A,not detected,0 of 3,3 of 9
D30H+G102I+Y108Q,27 nM,3 of 3,5 of 9
S52C+V99R+Y108V,350 µM,1 of 3,0 of 9
S63G+Y108S,11 nM,3 of 3,1 of 9
F27M+D30Q+Y108Q,not detected,0 of 3,0 of 9
H35D+W53L+Y108E,not detected,0 of 3,2 of 9
G26M+K65S+Y108T,not detected,0 of 3,1 of 9
K65P+Y108T,71 µM,2 of 3,6 of 9
G26C+A33L+Y108P,29 µM,2 of 3,7 of 9
M34V+N54A+Y108S,not detected,0 of 3,3 of 9
R101W+Y108W,8.3 nM,3 of 3,0 of 9
V99M+R101I+Y108F,2.5 µM,3 of 3,2 of 9
D107W+Y108C,not detected,0 of 3,0 of 9
D31L+R101K+Y108G,not detected,0 of 3,2 of 9
S57A+Y108G,110 nM,3 of 3,3 of 9
G56I+S63G+Y108D,8.4 µM,2 of 3,0 of 9
M34E+D107Q+Y108R,510 nM,1 of 3,1 of 9
S52D+G103M+Y108K,not detected,0 of 3,0 of 9
N54C+G59L+Y108G,not detected,0 of 3,0 of 9
S57N+Y108T,2.5 mM,1 of 3,5 of 9
A61Y+F106T+Y108F,not detected,0 of 3,1 of 9
R101D+G102P+Y108A,29 µM,2 of 3,4 of 9
Y60G+G104Y+Y108N,380 µM,1 of 3,4 of 9
S57Q+Y108P,1.4 µM,3 of 3,3 of 9
T28L+I58R+Y108A,9.8 nM,3 of 3,2 of 9
D30T+G50T+Y108M,110 µM,2 of 3,5 of 9
Y108F,4.1 µM,1 of 3,1 of 9
G50W+F106R+Y108Q,not detected,0 of 3,0 of 9
F29H+D31S+Y108D,not detected,0 of 3,2 of 9
M34D+S55I+Y108L,9.3 µM,2 of 3,0 of 9
S55L+Y60N+Y108K,260 µM,1 of 3,6 of 9
V99H+R101F+Y108E,200 µM,3 of 3,4 of 9
S52E+Y108C,160 µM,3 of 3,3 of 9
T28F+F29Y+Y108F,78 µM,3 of 3,3 of 9
M34Q+D62W+Y108P,8.3 µM,1 of 3,4 of 9
S55V+A61E+Y108D,not detected,0 of 3,0 of 9
W53N+S55I+Y108A,not detected,0 of 3,1 of 9
I51C+K65E+Y108N,not detected,0 of 3,2 of 9
F29W+Y108S,360 nM,1 of 3,2 of 9
G56L+Y60L+Y108T,190 µM,2 of 3,4 of 9
Y32V+S63T+Y108S,32 nM,3 of 3,0 of 9
F29V+G104K+Y108V,43 µM,2 of 3,0 of 9
T28E+F106T+Y108C,not detected,0 of 3,5 of 9
I58A+A61F+Y108M,160 nM,3 of 3,0 of 9
M34V+G100I+Y108R,not detected,0 of 3,0 of 9
F29G+S57E+Y108K,not detected,0 of 3,0 of 9
G50K+W53Q+Y108C,not detected,0 of 3,3 of 9
V99Q+D107P+Y108H,not detected,0 of 3,0 of 9
R101V+Y108N,33 nM,3 of 3,1 of 9
H35L+A61T+Y108Q,6.5 µM,1 of 3,2 of 9
G50A+I58T+Y108K,not detected,0 of 3,2 of 9

Picked from the list: the 9 lowest averages where every replicate gave a value.

| changes | apparent Kd | seen in | signal with controls |
|---|---|---|---|
| R101W+Y108W | 8.3 nM | 3 of 3 | 0 of 9 |
| T28L+I58R+Y108A | 9.8 nM | 3 of 3 | 2 of 9 |
| S63G+Y108S | 11 nM | 3 of 3 | 1 of 9 |
| D30H+G102I+Y108Q | 27 nM | 3 of 3 | 5 of 9 |
| Y32V+S63T+Y108S | 32 nM | 3 of 3 | 0 of 9 |
| R101V+Y108N | 33 nM | 3 of 3 | 1 of 9 |
| S57A+Y108G | 110 nM | 3 of 3 | 3 of 9 |
| I58A+A61F+Y108M | 160 nM | 3 of 3 | 0 of 9 |
| F29Y+S55A+Y108G | 330 nM | 3 of 3 | 1 of 9 |

Nonspecific signal, from three strains lacking the peptide, appeared in 21% of pairings of library AAYL51, centred on 34 µM (5% of these signals below 1.8 µM); values are not corrected for it. The control count says in how many pairings with the empty strains this scFv gave a signal.